The test concerns the target Metabotropic glutamate receptor 5 (Rattus norvegicus, UniProt P31424). The experiment in a line: Inhibition of [3H]MPEP binding to mGluR5 in rat brain membrane. In kind it is cell membranes. The method in brief: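 Rat brain membranes spun twice at 30,000g for 10 min, resuspended in ice-cold 50 mM Tris–HCl pH 7.0 with 1% BSA. Binding sites labeled with 1 nM [3H]MPEP in leupeptin/chymostatin/bestatin protease inhibitor cocktail, with NaCl added. Displacement by 10 drug concentrations run three times. Incubated 2.5 h at 4 °C to steady state, then filtered over PEI-presoaked glass-fibre filters.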

By UniProt entry, the sequences of proteins in these tests, tags left out.
UniProt P31424, whole entry: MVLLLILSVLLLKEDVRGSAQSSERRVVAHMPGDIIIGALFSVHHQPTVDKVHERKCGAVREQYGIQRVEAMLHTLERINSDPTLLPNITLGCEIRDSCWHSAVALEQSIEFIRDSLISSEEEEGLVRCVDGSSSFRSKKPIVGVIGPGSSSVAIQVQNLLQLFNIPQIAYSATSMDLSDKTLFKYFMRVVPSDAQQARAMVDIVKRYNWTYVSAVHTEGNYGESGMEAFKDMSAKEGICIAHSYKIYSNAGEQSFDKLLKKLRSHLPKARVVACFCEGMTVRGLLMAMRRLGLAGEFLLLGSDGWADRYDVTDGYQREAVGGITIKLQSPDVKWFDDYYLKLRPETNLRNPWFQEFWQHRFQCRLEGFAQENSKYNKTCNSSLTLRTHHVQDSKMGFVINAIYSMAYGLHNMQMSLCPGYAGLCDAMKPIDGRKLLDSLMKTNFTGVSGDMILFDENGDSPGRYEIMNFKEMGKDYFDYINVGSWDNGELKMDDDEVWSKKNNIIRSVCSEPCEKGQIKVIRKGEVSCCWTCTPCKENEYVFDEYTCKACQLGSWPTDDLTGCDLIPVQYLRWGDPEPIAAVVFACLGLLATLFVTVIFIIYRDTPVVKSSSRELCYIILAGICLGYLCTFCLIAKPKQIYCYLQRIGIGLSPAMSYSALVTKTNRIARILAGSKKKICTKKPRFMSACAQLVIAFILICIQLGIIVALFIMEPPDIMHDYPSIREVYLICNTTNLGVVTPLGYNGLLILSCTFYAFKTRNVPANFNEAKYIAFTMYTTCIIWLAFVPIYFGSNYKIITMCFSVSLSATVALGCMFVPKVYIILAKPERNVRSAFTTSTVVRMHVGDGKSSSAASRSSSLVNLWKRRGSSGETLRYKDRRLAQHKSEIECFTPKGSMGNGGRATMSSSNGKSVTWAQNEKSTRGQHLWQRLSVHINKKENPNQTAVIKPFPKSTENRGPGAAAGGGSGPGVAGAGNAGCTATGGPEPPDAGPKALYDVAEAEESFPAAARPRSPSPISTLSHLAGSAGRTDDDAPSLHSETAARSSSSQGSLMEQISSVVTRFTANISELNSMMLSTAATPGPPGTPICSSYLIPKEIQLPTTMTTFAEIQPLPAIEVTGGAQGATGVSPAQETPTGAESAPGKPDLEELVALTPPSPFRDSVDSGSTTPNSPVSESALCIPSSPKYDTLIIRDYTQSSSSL

As a reminder, the IC50 is the concentration at which inhibition is half-maximal. A low value points to greater potency.

The structures appear in SMILES notation.

For `Cc1cccc(C#Cc2ccccc2)n1`, the IC50 came out at 13 nM.

Source of the values: ChEMBL document CHEMBL1138071, “Design and synthesis of noncompetitive metabotropic glutamate receptor subtype 5 antagonists” (Bioorg Med Chem Lett, 2006).
